# Measured values published in patent publication US10400004B2, “Chemical synthesis method of phillyrin” (priority 2014, dated 2019).
# System: Vero cells
# Test: Drug cytotoxicity assay (MTT) on Vero cells
# Assay type: cell-based, African green monkey
# Conditions: 72 h, Probit regression
# Protocol: Vero cells were subcultured for 1-2 days to form a film. […] The digestion was drained after needle-like holes occurred on the cell surface, then cells were dispersed with a few milliliters of medium, counted, then diluted to about 5×10^7 cells/L with DMEM containing 10% fetal bovine serum and transferred to a 96-pore culture plate until monolayer formed.
# Cytotoxicity test: the drugs were diluted according to the concentrations shown in Table 1-1 for cytotoxicity assays.
# Different concentrations of drugs diluted with the above maintenance medium (DMEM containing 2% fetal calf serum) were added dropwise to Vero monolayer cells with 0.2 ml per pore, and for each concentration, the drugs were added in sextuplicate in 6 pores respectively. In addition, 6 pores were set up as normal control (without drugs) while another 6 pores as blank control (medium only). Cells were grown in a 37° C. incubator under 5% CO2. CPE was visualized under the invert microscope and recorded daily. […] Then the culture was shaken for 5 min, measured OD value at 492 nm to calculate the cell survival ratio. The cell survival ratio was analyzed using a Probit regression model in SPSS 18.0 statistical software, and the maximal nontoxic concentration (TC0) and median toxic concentration (TC50) of drugs against Vero cells were calculated.
smiles,measurement,value
NC(=O)c1ncn([C@@H]2O[C@H](CO)[C@@H](O)[C@H]2O)n1 [Ribavirin],Maximal non-cytotoxic concentration (TC0),0.065 g/L
